By UniProt entry, the sequences of proteins in these tests, tags left out.
UniProt P10415, whole entry, species assumed: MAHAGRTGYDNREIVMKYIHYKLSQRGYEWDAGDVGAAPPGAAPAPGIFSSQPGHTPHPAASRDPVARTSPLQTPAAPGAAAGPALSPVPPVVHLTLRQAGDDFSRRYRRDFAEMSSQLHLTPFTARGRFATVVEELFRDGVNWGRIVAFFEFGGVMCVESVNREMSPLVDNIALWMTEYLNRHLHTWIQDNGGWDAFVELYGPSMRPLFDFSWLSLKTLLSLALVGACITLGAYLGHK

In PMC9691367, “The PROTAC selectively degrading Bcl-xL represents a novel Hedgehog pathway inhibitor with capacity of combating resistance to Smoothened inhibitors while sparing bone growth” (Theranostics, 2022):

Biological target: Bcl-2 (Homo sapiens, UniProt P10415)
Assay: Competitive fluorescence polarization assay, Bcl-2 / FAM-Bax
Assay type: binding
Settings: Bcl-2 100 nM, FAM-Bax 5 nM
Description: Competitive fluorescence polarization assays were carried out in black-walled plates in assay buffer (20 mM Na2HPO4 ·12H2O, 20 mM NaH2PO4·12H2O, 1 mM EDTA, 50 mM NaCl, 0.05% PF-68). The use of protein/peptide probe pairs was as follows: Bcl-xL (5 nM) and FAM-Bad (5 nM), Bcl-2 (100 nM) and FAM-Bax (5 nM), Mcl-1 (100 nM) and FAM-Bim (5 nM). Assay buffer, proteins, drugs, and peptides were added to the assay plates sequentially. The assay plates were slightly shaken for 3 min and incubated for 30 min at room temperature. The fluorescence polarization was measured on a Synergy 2 reader (BioTek).

For `CC1(C)CCC(c2ccc(Cl)cc2)=C(CN2CCN(c3ccc(C(=O)NS(=O)(=O)c4ccc(N[C@H](CCN5CCOCC5)CSc5ccccc5)c(S(=O)(=O)C(F)(F)F)c4)cc3)CC2)C1` [ABT-263, reference compound], the Ki was 1.95 ± 1.14 nM.
